Values quoted from earlier work, collected in publication PMC10797613 (ACS Chemical Neuroscience, 2024).
pKi: −log10 of the molar value.

Amino acid sequences for entries named in this document (tags omitted).
UniProt P08908, whole entry: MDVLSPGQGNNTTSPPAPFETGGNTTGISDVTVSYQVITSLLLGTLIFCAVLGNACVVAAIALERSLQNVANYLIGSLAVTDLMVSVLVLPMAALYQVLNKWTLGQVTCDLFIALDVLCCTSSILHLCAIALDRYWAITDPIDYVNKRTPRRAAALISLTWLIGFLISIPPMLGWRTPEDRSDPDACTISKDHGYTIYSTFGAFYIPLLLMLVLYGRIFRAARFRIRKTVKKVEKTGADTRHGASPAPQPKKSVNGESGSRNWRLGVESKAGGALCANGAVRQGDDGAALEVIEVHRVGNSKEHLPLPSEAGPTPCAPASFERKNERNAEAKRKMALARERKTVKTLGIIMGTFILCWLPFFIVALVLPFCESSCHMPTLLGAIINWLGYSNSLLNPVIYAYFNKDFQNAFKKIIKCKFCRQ

Target: 5-HT1A (Homo sapiens, UniProt P08908)
Settings: read-out: Ki 5-HT1A; previous report; cited from earlier work

CNCCc1c[nH]c2cccc(O)c12 [norpsilocin, 4-hydroxy-N-methyltryptamine]
pKi: 7.07 to 7.54
